Results taken from patent US7597882B2, “Protein crosslinkers, crosslinking methods and applications thereof” (Incept LLC, priority 2006, dated 2009).
Each block holds one substance with its values, some of them ahead of it.

The chains behind the UniProt entries cited, without tags or fusion partners. Residues count along the entry.
UniProt P02769, 25-607: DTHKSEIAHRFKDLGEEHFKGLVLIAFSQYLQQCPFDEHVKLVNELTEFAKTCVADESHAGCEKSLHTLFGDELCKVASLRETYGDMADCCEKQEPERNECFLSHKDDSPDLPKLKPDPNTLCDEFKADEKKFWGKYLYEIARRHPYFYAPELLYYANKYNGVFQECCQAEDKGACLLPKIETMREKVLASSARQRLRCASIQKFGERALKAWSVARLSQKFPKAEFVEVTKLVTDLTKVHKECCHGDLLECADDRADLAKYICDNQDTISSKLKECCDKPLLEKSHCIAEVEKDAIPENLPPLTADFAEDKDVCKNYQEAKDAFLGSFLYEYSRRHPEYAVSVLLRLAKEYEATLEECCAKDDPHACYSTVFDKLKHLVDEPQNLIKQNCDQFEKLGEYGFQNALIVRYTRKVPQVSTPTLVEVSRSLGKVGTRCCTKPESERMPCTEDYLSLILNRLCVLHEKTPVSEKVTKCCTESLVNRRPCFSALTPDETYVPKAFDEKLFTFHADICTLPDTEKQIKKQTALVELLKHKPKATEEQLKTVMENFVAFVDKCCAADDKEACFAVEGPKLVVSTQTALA

Tests used:
Solubility in water = assay type: physicochemical; conditions: in 1 ml water or PBS solution
bovine albumin = bovine albumin (Bos taurus, UniProt P02769); assay: Crosslinking of protein (bovine albumin) using water soluble crosslinkers
Experimental: 1 g of bovine albumin is dissolved in 1 ml phosphate buffer solution (20 mM PBS, pH 7.4). 100 mg aspartic acid succinimide NHS ester (Example 30) is dissolved in 1 ml PBS solution (20 mM PBS, pH 7.4). Both the solutions are mixed in 50 ml polypropylene tube. The crosslinked gel formation is noticed in less than 30 minutes.
1 g of bovine albumin is dissolved in 2 ml borate buffer (10 mM, pH 9.5). 100 mg Lysine Succinimide NHS ester (Example 1) is dissolved in 1 ml 10 mM phosphate buffer, pH 4.0. 1 ml of each solution are mixed in a 50 ml polypropylene centrifuge tube. The gel formation is noticed in less than 30 minutes.

[1] = Degradation of crosslinked gel made with 8 arm PEG amine; assay type: physicochemical; conditions: gel with 8 arm PEG amine 20000; hydrolysis of ester bond of crosslinker
Experimental: 0.12 g Hydroxylamine Succinate NHS ester (Example 4) is dissolved in 5 ml phosphate buffered saline. 1 ml of each of these two solutions are mixed to produce a crosslinked gel. The crosslinked gel degrades due to hydrolysis of succinate ester bond in Hydroxylamine Succinate NHS ester.
0.12 g Hydroxylamine Glutarate NHS ester (Example 7) is dissolved in 5 ml phosphate buffered saline. 1 ml of each of two solutions are mixed to produce a crosslinked gel. The crosslinked gel degrades due to hydrolysis of glutarate ester bond in Hydroxylamine Glutarate NHS ester.

amount of crosslinker dissolved completely (Solubility in water): 15 mg
crosslinked gel formation time (bovine albumin; 1 g bovine albumin in 1 ml PBS, 100 mg crosslinker in 1 ml PBS (20 mM, pH 7.4)): less than 30 minutes
Substance: Aspartic Acid Succinimide NHS Ester

Substance: Hydroxylamine Succinate NHS Ester
degradation of crosslinked gel [1]: degrades

Substance: Lysine Succinimide NHS ester
gel formation time (bovine albumin; bovine albumin in borate buffer pH 9.5, 100 mg crosslinker in 1 ml 10 mM phosphate buffer pH 4.0): less than 30 minutes
